Measured affinities in a library of Ab-14 light chain variants

Reference: Li et al. 2023, doi:10.1038/s41467-023-39022-2. File: FLAb, binding data.

All variants were tested on one target, the spike HR2 peptide PDVDLGDISGINAS (SARS-CoV-2).

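The parent was found by panning a naive human phage display library on the peptide. This is the validation round: designs drawn from the data on random variants, tested in the same kind of assay. Group labels follow the data file (Ctrl: baseline library sampled from a position-specific scoring matrix, with some repeated check sequences; GP: Gaussian process model; Gen: genetic algorithm; a sequence that several methods proposed may carry one label only). In AlphaSeq, yeast of one mating type display the scFv and yeast of the other type display the target. After mating in shaken culture at 30 °C for 16 h, diploids were selected and their barcode pairs sequenced. Each replicate has its own calibration line, from reference interactions of the BCL2 family. The assay was run in six technical replicates.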

Ab-14 is the parent antibody, in scFv form: VH, then the linker GGGGSGGGGSGGGGS, then VL. The heavy chain is unchanged in all variants.
VH: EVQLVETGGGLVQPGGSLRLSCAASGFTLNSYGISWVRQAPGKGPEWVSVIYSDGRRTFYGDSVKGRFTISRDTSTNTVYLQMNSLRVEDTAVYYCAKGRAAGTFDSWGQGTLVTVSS
VL: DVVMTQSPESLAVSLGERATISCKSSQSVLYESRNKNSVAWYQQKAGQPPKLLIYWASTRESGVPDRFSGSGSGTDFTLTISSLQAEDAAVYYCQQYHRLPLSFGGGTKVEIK

The parent's light chain CDRs are KSSQSVLYESRNKNSVA, WASTRES, QQYHRLPLS; each variant's own CDRs replace them letter for letter.
Values are log10 of the apparent Kd in nM; lower means stronger binding.
Replicates are averaged; those with no signal do not enter the mean.
"ND" means that the variant was in the library but no mating with the target was seen in that replicate; the authors take this as a sign of poor binding, and no number exists.

CDR-L1,CDR-L2,CDR-L3,group,"replicates, log10 nM","mean, log10 nM",control signals
KSSVSVLYESRNKNSVA,WASTRES,QQYHRLPLS,Ctrl,ND / ND / ND / ND / ND / ND,ND,1 of 18 (1.13)
KLSQSVDSESRNKNSVA,WAITREI,QQYHRLPLS,Ctrl,ND / ND / 2.57 / ND / 1.62 / 3.09,2.43,0 of 18
KSMQSVLDESRNCNSVA,AASTRES,QQYHRLPLS,Ctrl,1.01 / 0.69 / 0.69 / 0.67 / 0.36 / 0.96,0.73,1 of 18 (1.18)
KSDQSVLIESRFKNSVA,WASTRES,QQLHRLPLS,Ctrl,ND / ND / ND / ND / ND / ND,ND,0 of 18
KSSQSVYYESRNKNSVA,WASTRES,QQYHRLPLS,Ctrl,ND / 1.77 / 1.93 / 2.05 / 1.66 / 2.95,2.07,1 of 18 (2.24)
KSSQSVLYESLNANSVA,WASTRER,QQYHDLPLS,Ctrl,ND / ND / 2.79 / 3.25 / 3.27 / 3.01,3.08,1 of 18 (3.14)
KSSQSHLPESRNKNSVA,DASTRES,QQYHRLPLS,Ctrl,0.17 / -0.05 / -0.04 / -0.11 / -0.17 / 0.30,0.02,4 of 18 (3.07)
KSSQSVLMESRNKNAVA,WASTREQ,QQYHRLPLE,Ctrl,3.10 / 1.37 / 2.55 / 1.89 / ND / ND; ND / ND / ND / 1.36 / 2.41 / 1.91; 0.90 / 2.15 / 1.03 / 1.46 / 1.21 / 1.58; 1.08 / ND / 3.09 / 2.41 / 2.46 / 2.47; ND / ND / 1.90 / 1.95 / 2.19 / 3.26,1.99,4 of 90 (2.09)
KSSQSVQDNSVNKNSVA,GASTRES,QQYHRLPLS,Ctrl,0.61 / 0.37 / 0.45 / 0.72 / 0.39 / 0.41,0.49,1 of 18 (3.22)
KSSQSVLYESRNKNSVA,WASTRVP,QQYHRLPLS,Ctrl,1.01 / 1.20 / 0.64 / 0.96 / 0.68 / 1.22,0.95,1 of 18 (2.99)
KVSQSVLYERRNKNSVA,SASTRES,QQYHRLPLS,Ctrl,1.12 / 1.21 / 1.49 / 0.65 / 0.98 / 0.75,1.03,0 of 18
KSSESVWYESRNKNSVA,MDSTRES,QQVHRLPLS,Ctrl,ND / ND / ND / ND / ND / ND,ND,0 of 18
KSSQSVLYESRNKNSVA,WASTRTS,QQYHRLPLS,Ctrl,ND / ND / ND / ND / ND / ND,ND,1 of 18 (2.07)
KSQQSVLYESRNKNSVA,FASTRES,QQYHRVPLS,Ctrl,ND / ND / ND / ND / ND / ND,ND,0 of 18
KSSQSVLYESSNKNSVA,WASTRMS,QQYHRLPLS,Ctrl,1.72 / 2.22 / 1.77 / 2.45 / 1.42 / 1.31,1.81,3 of 18 (2.22)
KSSQSVLYESMYKNSVA,WASTREA,QQYHRLPLS,Ctrl,2.96 / ND / ND / 2.16 / 1.83 / 2.55,2.37,3 of 18 (3.03)
KWQQSVLYESRNKNSVA,HVSTRES,QQYHRLPLS,Ctrl,0.87 / 1.13 / 1.19 / 1.05 / 1.08 / 0.72,1.01,2 of 18 (3.28)
KSSQSVLYEDRNGNSVA,WASTRES,QQYHRLPLS,Ctrl,ND / ND / ND / ND / ND / ND,ND,1 of 18 (1.83)
KSSQSVLMEHRNKNFVA,KAETREI,QQYHRLPLS,Ctrl,1.82 / 1.29 / 1.49 / 1.43 / 1.62 / 1.42,1.51,1 of 18 (3.63)
HFSQSVLYESRNKNSVA,WASTREA,QQYHRLPLS,Ctrl,0.54 / 0.23 / 0.18 / 0.25 / 0.32 / 0.24,0.29,3 of 18 (2.87)
KFSQSVLMESRNKNSVA,WASTRES,QQYHRLPLS,Ctrl,0.65 / 0.35 / 0.44 / 0.44 / 0.37 / 0.58,0.47,1 of 18 (2.88)
KSSQSVLYESNNKNSVA,GATTRES,QQYHRLPLS,Ctrl,0.14 / 0.19 / 0.07 / -0.02 / 0.01 / 0.20,0.10,4 of 18 (3.16)
KTSQSVLYESENKNSVA,WASTRES,QQYHRLPLS,Ctrl,1.26 / 1.66 / 1.36 / 1.28 / 1.30 / 1.02,1.31,0 of 18
KSSQSVLYESANKNSVA,WASTREA,QQYHRLPLS,Ctrl,1.28 / 0.95 / 1.20 / 1.38 / 0.67 / 1.25,1.12,0 of 18
KSSQSVLYESRNKNSVA,QASTRES,QAYHRNPLS,Ctrl,0.63 / 1.49 / 0.06 / 0.14 / 0.27 / 0.53,0.52,0 of 18
KSSQSLLYESREKNSVA,DASTRES,QQYHECPLS,Ctrl,ND / ND / ND / ND / ND / 2.45,2.45,0 of 18
KGSQSVLYYSRNKNSVA,KASTRES,QQYHRLPLS,Ctrl,0.63 / 0.54 / 2.58 / 1.45 / 1.69 / 1.12,1.34,1 of 18 (1.90)
KCSQSVGYESRNKNSVA,WASHREQ,QQYHRLFLS,Ctrl,ND / 2.18 / 2.15 / 1.87 / ND / 1.69,1.97,0 of 18
KSSQSVLYESRNKNSVA,MASTRES,QQKHRLPLS,Ctrl,ND / ND / ND / ND / ND / ND,ND,0 of 18
KSSQDVLYESMNPNSVA,GASTRES,QQYHRLPLS,Ctrl,0.13 / 0.11 / 0.07 / 0.03 / 0.11 / 0.13,0.10,0 of 18
KSSESVQMESRNKNSVA,WASTRES,QQYHRLPLS,Ctrl,1.05 / 0.80 / 1.20 / 1.27 / 1.45 / 1.26,1.17,5 of 18 (2.74)
KVSQSVLYESRNKNSVA,WASTRLS,QQYHRLPLS,Ctrl,0.96 / 0.42 / 0.72 / 0.97 / 0.50 / 0.60,0.70,0 of 18
KSSQSKLYESRNKNSVA,WISTRES,QQVHRLPIY,Ctrl,ND / ND / ND / ND / ND / 2.21,2.21,0 of 18
KSSQSVLEESKNKNSVA,WASTRES,QQYHRLPLS,Ctrl,0.99 / 0.99 / 0.44 / 0.42 / 0.44 / 0.84,0.69,2 of 18 (2.42)
KSSQSVLYESTNKNSVA,WASTRCS,QQYHRLPLS,Ctrl,1.40 / 1.34 / 1.24 / 1.23 / 2.03 / 1.65,1.48,2 of 18 (3.27)
KMSQSVLYESRNKNSVA,NASTREQ,QQYHRLPLS,Ctrl+GP_Gen,-0.03 / -0.30 / -0.30 / -0.33 / -0.35 / -0.14; -0.10 / 0.03 / -0.93 / -0.79 / -0.04 / -0.51,-0.32,1 of 36 (2.74)
KSSQSVLYNSRNKNSVA,EASTREQ,QQYHRLPLS,Ctrl,0.77 / 0.57 / 0.36 / 0.04 / 0.38 / 0.41,0.42,2 of 18 (2.19)
KSSQSVLYESRNKNSVA,WASTRLS,QQYHRLPLS,Ctrl,ND / 2.59 / ND / 1.99 / 2.51 / 2.67,2.44,2 of 18 (2.25)

Top 5 of the variants detected in all replicates, tightest first:

| CDR-L1 | CDR-L2 | CDR-L3 | group | replicates, log10 nM | mean, log10 nM | control signals |
|---|---|---|---|---|---|---|
| KMSQSVLYESRNKNSVA | NASTREQ | QQYHRLPLS | Ctrl+GP_Gen | -0.03 / -0.30 / -0.30 / -0.33 / -0.35 / -0.14; -0.10 / 0.03 / -0.93 / -0.79 / -0.04 / -0.51 | -0.32 | 1 of 36 (2.74) |
| KSSQSHLPESRNKNSVA | DASTRES | QQYHRLPLS | Ctrl | 0.17 / -0.05 / -0.04 / -0.11 / -0.17 / 0.30 | 0.02 | 4 of 18 (3.07) |
| KSSQDVLYESMNPNSVA | GASTRES | QQYHRLPLS | Ctrl | 0.13 / 0.11 / 0.07 / 0.03 / 0.11 / 0.13 | 0.10 | 0 of 18 |
| KSSQSVLYESNNKNSVA | GATTRES | QQYHRLPLS | Ctrl | 0.14 / 0.19 / 0.07 / -0.02 / 0.01 / 0.20 | 0.10 | 4 of 18 (3.16) |
| HFSQSVLYESRNKNSVA | WASTREA | QQYHRLPLS | Ctrl | 0.54 / 0.23 / 0.18 / 0.25 / 0.32 / 0.24 | 0.29 | 3 of 18 (2.87) |

In the paper, a design with two or fewer of six values counts as a poor binder.
Nonspecific signal, from three strains lacking the peptide, appeared in 4% of pairings of all light chain designs, centred on 2.64 (5% of these signals below 1.59); values are not corrected for it. For each scFv, signals with the empty controls are counted beside the result, with their mean in brackets.
Of ten entries with the parent sequence, four were seen in most replicates (averages 0.34 to 2.37), three in one and three in none, so single entries are noisy.
Where one sequence has several entries in the source, the replicates are listed entry by entry, parted by semicolons.
A sequence measured in both rounds can read differently, since the two assays cover different ranges.